{"source": "patent US20210239702A1", "about": "“METHODS FOR PREDICTING RESPONSIVENESS OF LUNG CANCER PATIENTS TO HER2-TARGETING THERAPIES” (MEMORIAL SLOAN KETTERING CANCER CENTER, priority 2018, published 2021)", "origin": "cited, not measured here", "test_system": "HER2 IHC positive lung cancers", "settings": "six phase 2 trials; cited from earlier work"}
{"substance": "trastuzumab: HER2-targeting antibody", "values": [{"measurement": "results of trials", "value": "uniformly negative"}]}
